What was measured:
[1] = molecular target: Transporter (Rattus norvegicus, UniProt Q63380); assay: Displacement of [3H]nisoxetine from Sprague-dawley rat NET by liquid scintillation spectrophotometry
[2] = molecular target: Sodium-dependent dopamine transporter (Rattus norvegicus, UniProt P23977); assay: Displacement of [125I]RTI55 from DAT in Sprague-dawley rat striatum by liquid scintillation spectrophotometry

By UniProt entry, the sequences of proteins in these tests, tags left out.
UniProt Q63380, whole entry: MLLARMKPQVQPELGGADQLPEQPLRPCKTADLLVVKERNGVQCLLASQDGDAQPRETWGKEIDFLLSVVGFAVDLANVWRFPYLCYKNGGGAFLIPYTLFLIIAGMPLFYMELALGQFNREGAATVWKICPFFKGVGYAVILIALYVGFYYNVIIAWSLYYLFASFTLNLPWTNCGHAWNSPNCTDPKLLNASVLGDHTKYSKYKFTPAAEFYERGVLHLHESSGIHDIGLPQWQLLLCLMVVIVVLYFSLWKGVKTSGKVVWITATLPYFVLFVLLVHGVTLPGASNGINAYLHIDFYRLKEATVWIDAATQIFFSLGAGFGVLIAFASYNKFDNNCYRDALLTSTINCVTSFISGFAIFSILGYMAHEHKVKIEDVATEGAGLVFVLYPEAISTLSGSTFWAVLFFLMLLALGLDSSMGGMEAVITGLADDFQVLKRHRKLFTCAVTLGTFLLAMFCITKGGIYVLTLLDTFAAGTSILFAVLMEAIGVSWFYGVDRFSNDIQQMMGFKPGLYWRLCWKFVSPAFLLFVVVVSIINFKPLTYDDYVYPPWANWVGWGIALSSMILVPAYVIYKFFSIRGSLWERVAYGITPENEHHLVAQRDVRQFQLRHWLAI
UniProt P23977, whole entry: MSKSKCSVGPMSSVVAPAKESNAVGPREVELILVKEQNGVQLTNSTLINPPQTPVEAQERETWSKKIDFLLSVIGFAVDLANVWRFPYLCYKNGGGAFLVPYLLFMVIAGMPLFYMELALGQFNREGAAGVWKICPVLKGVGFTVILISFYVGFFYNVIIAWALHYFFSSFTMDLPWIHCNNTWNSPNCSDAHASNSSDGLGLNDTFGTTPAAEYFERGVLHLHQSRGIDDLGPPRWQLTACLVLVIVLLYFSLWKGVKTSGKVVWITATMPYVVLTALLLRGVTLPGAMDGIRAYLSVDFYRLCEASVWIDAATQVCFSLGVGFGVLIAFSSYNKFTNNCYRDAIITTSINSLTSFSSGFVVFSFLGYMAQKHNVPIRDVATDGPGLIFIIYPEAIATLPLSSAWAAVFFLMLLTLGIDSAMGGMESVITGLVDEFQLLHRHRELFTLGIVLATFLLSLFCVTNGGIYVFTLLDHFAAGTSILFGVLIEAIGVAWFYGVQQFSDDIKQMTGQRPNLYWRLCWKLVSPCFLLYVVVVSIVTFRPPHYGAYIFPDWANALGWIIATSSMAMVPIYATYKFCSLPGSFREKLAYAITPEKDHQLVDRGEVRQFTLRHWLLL

SMILES | Ki [1] | IC50 [2]
CNCCC(Oc1ccccc1OC)c1ccccc1 (racemic) [NISOXETINE] | 0.006 µM | 
CNCC[C@@H](Oc1cccc2ccccc12)c1cccs1 [(R)-DULOXETINE] |  | 0.66 µM
CNCC[C@H](Oc1cccc2ccccc12)c1cccs1 [DULOXETINE] |  | 0.37 µM

— ChEMBL document CHEMBL1139307, “1-Naphthyl and 4-indolyl arylalkylamines as selective monoamine reuptake inhibitors” (Bioorg Med Chem Lett, 2009)
